This passage reports inhibition results from PubChem BioAssay AID1422 (Emory University Molecular Libraries Screening Center, 2008).

The chains behind the UniProt entries cited, without tags or fusion partners.
UniProt P43116, whole entry: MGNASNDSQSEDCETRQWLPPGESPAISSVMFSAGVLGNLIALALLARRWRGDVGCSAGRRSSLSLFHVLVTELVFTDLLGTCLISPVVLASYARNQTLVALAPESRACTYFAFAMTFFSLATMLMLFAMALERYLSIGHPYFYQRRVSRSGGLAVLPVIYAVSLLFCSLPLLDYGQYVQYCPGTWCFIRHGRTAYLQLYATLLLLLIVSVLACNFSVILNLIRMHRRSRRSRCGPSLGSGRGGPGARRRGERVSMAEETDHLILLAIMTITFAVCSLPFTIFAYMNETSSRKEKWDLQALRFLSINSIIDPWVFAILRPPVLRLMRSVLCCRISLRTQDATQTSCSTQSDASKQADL

Only a part is listed here, and it is no random draw. Calls of active or inactive are those of the source.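 The calls were made as follows: active = percent inhibition above 40 after rounding to a whole number; inactive = the rest.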

The test deals with Prostaglandin E2 receptor EP2 subtype (Homo sapiens) (UniProt P43116). Kind of test: human EP2 receptor antagonists, primary screen, TR-FRET cAMP, C6 glioma cells (AID 1422).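 Also: rat C6 glioma host cells with rolipram phosphodiesterase inhibitor present; the protocol text gives 20 µM as final concentration.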 To be noted: C6 glioma cells expressing human EP2, cAMP TR-FRET; at 25 µM; active compounds read high; cells stimulated with saturating PGE2. Background: Time-resolved FRET reads energy transfer from a long-lived donor to a nearby acceptor.
In general, inhibition refers to the percentage by which the read-out fell short of the control. With `CN(CCCl)CCCl`, the inhibition was inactive: 14.4%.
